# OPERA 2.9 data: properties

Source: data files of OPERA 2.9 (Mansouri et al.), github.com/kmansouri/OPERA.

Melting points are in °C. The boiling point refers to atmospheric pressure (760 mmHg), by the definition of the set. logP is the log10 of the octanol-water partition coefficient; higher is more lipophilic. Water solubility is log10 of mol/L, nominally at 25 °C; higher is more soluble. Vapor pressure is log10 of mmHg; the set covers 15 to 30 °C, mostly 20 to 25 °C. Henry's law constant (air-water partitioning) is log10 of atm·m3/mol, nominally at 25 °C. The unbound fraction in human plasma runs from 0 (all bound) to 1 (all free). Clint is human hepatic intrinsic clearance in µL/min per million cells; 0 means that no clearance was seen. "–" marks a cell with nothing listed here.

compound,mp (°C),BP (°C),logP (octanol/water),water solubility (log10 mol/L),log vapor pressure (log10 mmHg),log H (log10 atm·m3/mol),fraction unbound,intrinsic clearance (µL/min/10^6 cells)
Cc1ccc(-c2c(Cl)nc(C#N)n2S(=O)(=O)N(C)C)cc1,–,–,3.2,–,-7.001,–,–,–
Cc1cc(C(F)(C(F)(F)F)C(F)(F)F)ccc1NC(=O)c1cccc(I)c1C(=O)NC(C)(C)CS(C)(=O)=O,219.1,–,4.2,-7.37,–,–,–,–
CCOC(=O)CC(SP(=O)(OC)OC)C(=O)OCC (stereo not drawn),20,–,–,–,–,–,0.538,55.9
CN(C)C(=S)SSC(=S)N(C)C,–,–,–,-3.987,–,–,–,816
CC(C)C(Nc1ccc(C(F)(F)F)cc1Cl)C(=O)OC(C#N)c1cccc(Oc2ccccc2)c1 (stereo not drawn),5.45,–,5.5,–,–,–,–,–
FC(F)OCC(F)(F)C(F)(F)F,–,–,–,-3.26,2.527,–,–,–
CC(Cl)CCl (stereo not drawn),–,–,–,–,–,–,0.5441,11.33
O=C(Cc1ccccc1)OCCc1ccccc1,–,–,3.797,-4.114,-1.173,–,–,–
Clc1ccc(Cl)c(-c2cccc(Cl)c2Cl)c1,47,–,–,–,-4.015,–,–,–
CCOC(=O)COc1ccc(Cl)cc1Cl,–,–,–,-3.35,-2.959,–,–,–
CCOP(=S)(OCC)OC(=O)/C(=N\OC)c1csc(N)n1,88,–,2.66,–,-6.152,–,–,–
CN1COCN=C1N[N+](=O)[O-],–,–,-0.35,–,-6.736,–,–,–
CC(C)CC(C)Nc1ccc(Nc2ccccc2)cc1 (stereo not drawn),–,360,4.62,-5.294,–,–,–,–
COc1ccc([N+](=O)[O-])cc1[O-].[Na+],–,–,–,-2.02,-7.001,–,–,–
O=C1C(Cl)=C(Cl)C(=O)C(Cl)=C1Cl,–,–,2.3,–,-5.209,–,–,–
CCOP(=O)(N=C1SCC(C)S1)OCC (stereo not drawn),–,–,–,–,-4.498,-9.923,–,–
ClC1=C(Cl)[C@]2(Cl)[C@H]3[C@H]([C@@H]4O[C@]4(Cl)[C@@H]3Cl)[C@@]1(Cl)C2(Cl)Cl,–,–,–,-7.27,–,-6.42,–,–
c1ccc(COP(OCc2ccccc2)OCc2ccccc2)cc1,-5.9,–,–,–,-6.347,–,–,–
Clc1ccc(C2(Cn3cncn3)OCCO2)c(Cl)c1,–,–,–,–,-7.187,-10.07,–,–
Cc1cc(O)ccc1Cl,–,–,–,–,–,–,0.0723,0
COCC(C)N(C(=O)CCl)c1c(C)csc1C (stereo not drawn),–,–,–,–,–,–,0.2316,19.92
c1cc(N(CC2CO2)CC2CO2)ccc1Cc1ccc(N(CC2CO2)CC2CO2)cc1 (stereo not drawn),-13.2,–,2.12,-4.662,–,–,–,–
ClC1=C(Cl)C(Cl)(C2(Cl)C(Cl)=C(Cl)C(Cl)=C2Cl)C(Cl)=C1Cl,–,–,3.23,–,–,-3.165,–,–
F/C(=C(/F)C(F)(C(F)(F)F)C(F)(F)F)C(F)(F)F,–,–,4.1,-5.665,2.41,–,–,–
O=C(O)C(F)(F)C(F)(F)C(F)(F)C(F)(F)C(F)(F)C(F)(F)F,–,–,–,-0.489,–,-5.248,0.00164,0
CN(C)NC(=O)CCC(=O)O,–,–,–,–,–,-6.85,–,2.29
FC(F)(F)/C=C\C(F)(F)F,–,33.33,2.3,-2.55,–,–,–,–

3 of these entries, quoted again:

compound,mp (°C),BP (°C),logP (octanol/water),water solubility (log10 mol/L),log vapor pressure (log10 mmHg),log H (log10 atm·m3/mol),fraction unbound,intrinsic clearance (µL/min/10^6 cells)
CCOP(=S)(OCC)OC(=O)/C(=N\OC)c1csc(N)n1,88,–,2.66,–,-6.152,–,–,–
COc1ccc([N+](=O)[O-])cc1[O-].[Na+],–,–,–,-2.02,-7.001,–,–,–
F/C(=C(/F)C(F)(C(F)(F)F)C(F)(F)F)C(F)(F)F,–,–,4.1,-5.665,2.41,–,–,–

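The numbers are reported measurements, compiled and curated for the OPERA QSAR suite. The files give a single number for a compound and property, which may rest on several reports. How each value was measured is not recorded, so precision varies. The measured form (salt, isomer or mixture) is not always the one drawn. Some entries may be limits or estimates that an upstream database listed as plain numbers.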